From patent EP4834881A1, “QUINOLONE COMPOUNDS AND USE THEREOF” (dated 2026)

Chains of the proteins cited; added tags and fusions are not shown.
UniProt Q96LB1, whole entry: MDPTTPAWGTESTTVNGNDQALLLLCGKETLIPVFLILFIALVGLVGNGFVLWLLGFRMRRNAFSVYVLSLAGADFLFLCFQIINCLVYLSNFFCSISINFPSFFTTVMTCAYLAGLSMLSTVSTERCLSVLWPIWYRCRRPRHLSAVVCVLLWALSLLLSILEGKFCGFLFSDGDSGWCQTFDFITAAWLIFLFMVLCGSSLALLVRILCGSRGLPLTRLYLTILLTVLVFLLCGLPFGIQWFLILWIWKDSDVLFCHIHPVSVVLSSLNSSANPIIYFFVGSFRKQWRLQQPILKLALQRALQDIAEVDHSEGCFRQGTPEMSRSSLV

Key:
BALB/c mice [1] = test: Allergic rhinitis model: OVA sensitization and nasal challenge, number of sneezes; conditions: 5mg/kg p.o. once daily, within 10 min after the nasal challenge
Procedure: (§1) Experimental animals: BALB/c mice, from Guangdong Vital River Laboratory Animal Technology Co., Ltd.
Modeling was initiated on the day of grouping, which was designated as M1. Except for the normal group, mice in all modeling groups were intraperitoneally injected with a sensitization solution of (250 µg OVA (Ovalbumin) (Supplier: Shanghai Macklin, Lot No.: C16255388) mixed with 5 mg aluminum hydroxide/mL) per mouse, while the normal control group was given an equal volume of sterile PBS solution. The injection cycle was M1, M7, and M14. Starting from M21, challenge was carried out by nasal instillation once daily for 7 consecutive days. The challenge solution was a 50 mg/mL OVA solution, and a volume of 10 µL was instilled into each nostril per time. The normal control group was not subjected to nasal instillation.
Administration was initiated on the day of the challenge by nasal instillation, which was designated as D1, and was performed once daily for 7 consecutive days. The normal control group and the model control group were administered with vehicle alone under the same conditions:
The number of sneezes in each group was recorded within 10 min after the nasal challenge every day during the administration period.

human MRGPRX2 = human MRGPRX2 (Homo sapiens, UniProt Q96LB1); test: In vitro target binding assay: BRET between MRGPRX2-Nluc and Venus-β-arrestin1 in transfected HEK-293T cells, antagonist mode against agonist R-ZINC-3573 (EC80); conditions: antagonism of agonist R-ZINC-3573 at EC80, net BRET
BALB/c mice [2] = test: Atopic dermatitis model: MC903 (calcipotriol) on right ear, ear thickness; conditions: 50 mg/kg BID p.o., mean ± SEM
Procedure: as §1
MC903 (calcipotriol) (Supplier: TargetMol, Lot No.: 235760) was applied to the right ear of mice, once a day, for 14 consecutive days.
The animals were randomly divided into 6 groups before induction on D1. The model control group was administered with vehicle alone under the same conditions. Administration was carried out according to the following groups:
During the experiment period, the thickness of the right ear of the mice was measured. […] The data are presented as mean ± standard error of the mean (SEM).

## COc1c(-c2ccc(S(=O)(=O)N3CC(F)(F)C3)cc2)c(F)cc2c(=O)c(C(=O)O)cn(C3CC3)c12
BALB/c mice [1]; D1
  number of sneezes: 2.0 number of sneezes/mouse
BALB/c mice [1]; D2
  number of sneezes: 1.4 number of sneezes/mouse
BALB/c mice [1]; D3
  number of sneezes: 14.6 number of sneezes/mouse
BALB/c mice [1]; D4
  number of sneezes: 7.8 number of sneezes/mouse
BALB/c mice [1]; D5
  number of sneezes: 9.1 number of sneezes/mouse
BALB/c mice [1]; D6
  number of sneezes: 13.0 number of sneezes/mouse
BALB/c mice [1]; D7
  number of sneezes: 10.4 number of sneezes/mouse
Human MRGPRX2
  IC50: 100 to 1000 nM
BALB/c mice [2]; D2
  Right Ear Thickness of Mice: 0.19±0.03 mm
BALB/c mice [2]; D4
  Right Ear Thickness of Mice: 0.28 ± 0.04 mm
BALB/c mice [2]; D6
  Right Ear Thickness of Mice: 0.40 ± 0.04 mm
BALB/c mice [2]; D8
  Right Ear Thickness of Mice: 0.48 ± 0.04 mm
BALB/c mice [2]; D10
  Right Ear Thickness of Mice: 0.52 ± 0.04 mm
BALB/c mice [2]; D12
  Right Ear Thickness of Mice: 0.60 ± 0.04 mm
BALB/c mice [2]; D14
  Right Ear Thickness of Mice: 0.57 ± 0.02 mm
